Assay results taken from patent US6020328A, “20-keto-11β-arylsteroids and their derivatives having agonist or antagonist hormonal properties” (Research Triangle Institute, priority 1998, dated 2000).

Tests used:
[1] = tested on: rabbits; experiment: McGinty test (agonist, test compound alone); type: in vivo, rabbit
[2] = tested on: rabbits; experiment: anti-McGinty test (antagonist, test compound plus progesterone); type: in vivo, rabbit

CC(=O)[C@@]1(OC(=O)Cc2ccccc2)CC[C@H]2[C@@H]3CCC4=CC(=O)CCC4=C3[C@@H](c3ccc(N(C)C)cc3)C[C@@]21C [I 4-Me2 N H O H O--CO--CH2 C6 H5 H, 11β-[4-(N,N-Dimethylamino)phenyl]-17α-phenylacetoxy-19-norpregna-4,9-diene-3,20-dione]
McPhail Index, McGinty Assay (Agonist) ([1]; dose 0.3 micrograms): 0 +/- 0
McPhail Index, McGinty Assay (Agonist) ([1]; dose 3 micrograms): 0.1 +/- 0.1
McPhail Index, McGinty Assay (Agonist) ([1]; dose 30 micrograms): 0 +/- 0
McPhail Index, McGinty Assay (Antagonist) ([2]; dose 0.3 micrograms): 2.3 +/- 0.3
McPhail Index, McGinty Assay (Antagonist) ([2]; dose 3 micrograms): 3.1 +/- 0.1
McPhail Index, McGinty Assay (Antagonist) ([2]; dose 30 micrograms): 1.2 +/- 0.2
